Laboratory results: US20100324034A1 (priority 2007, published 2010)

Sequences of proteins named here, by UniProt entry; tags and fusion partners are left off. Residues count along the entry.
UniProt P04584, 613-1051: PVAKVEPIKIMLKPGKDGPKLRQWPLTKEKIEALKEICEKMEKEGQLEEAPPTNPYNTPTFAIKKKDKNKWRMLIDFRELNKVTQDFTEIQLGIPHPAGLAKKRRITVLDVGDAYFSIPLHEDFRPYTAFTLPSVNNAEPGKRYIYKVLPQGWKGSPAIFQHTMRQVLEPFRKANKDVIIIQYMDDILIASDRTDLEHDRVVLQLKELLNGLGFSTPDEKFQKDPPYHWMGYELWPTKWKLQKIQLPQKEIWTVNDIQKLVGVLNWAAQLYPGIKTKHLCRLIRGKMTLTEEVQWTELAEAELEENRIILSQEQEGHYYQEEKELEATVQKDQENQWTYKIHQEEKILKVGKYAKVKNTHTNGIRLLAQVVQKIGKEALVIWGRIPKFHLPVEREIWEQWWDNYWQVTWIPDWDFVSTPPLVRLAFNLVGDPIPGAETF
UniProt P04584, 613-1171: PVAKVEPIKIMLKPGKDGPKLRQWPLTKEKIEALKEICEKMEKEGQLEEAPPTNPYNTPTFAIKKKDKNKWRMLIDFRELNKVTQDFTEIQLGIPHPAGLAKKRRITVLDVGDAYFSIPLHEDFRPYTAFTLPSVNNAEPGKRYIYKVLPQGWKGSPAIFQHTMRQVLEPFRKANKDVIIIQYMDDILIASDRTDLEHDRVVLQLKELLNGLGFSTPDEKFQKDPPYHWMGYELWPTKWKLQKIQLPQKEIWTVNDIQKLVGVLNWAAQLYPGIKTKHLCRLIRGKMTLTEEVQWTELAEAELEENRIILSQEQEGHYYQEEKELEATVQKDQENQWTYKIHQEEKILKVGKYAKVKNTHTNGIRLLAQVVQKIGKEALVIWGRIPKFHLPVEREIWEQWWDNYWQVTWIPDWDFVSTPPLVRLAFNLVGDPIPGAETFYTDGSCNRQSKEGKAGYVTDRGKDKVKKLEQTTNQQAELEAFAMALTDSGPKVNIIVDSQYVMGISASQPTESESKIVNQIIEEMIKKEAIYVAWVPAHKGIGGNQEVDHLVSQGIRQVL

Key:
[1] = cited from earlier work
HIV-2 RT = HIV-2 RT (Human immunodeficiency virus type 2 subtype A, UniProt P04584); conditions: cited from earlier work
[2] = test system: human cellular DNA polymerases alpha, beta, gamma, and delta; conditions: cited from earlier work
ACH-2 cell line = ACH-2 cell line model for HIV latency, HIV p24 expression by flow cytometry; type: cell-based; conditions: for % of cells induced: ACH-2 cells
[3] = test system: resting CD4+ T cells from aviremic, ART-treated HIV+ patients; experiment: limiting-dilution outgrowth assay, HIV detected by p24 antigen capture ELISA; type: cell-based, human; conditions: VPA 40 μM, SAHA 250 nM, PHA/allo

Row | SMILES | solubility in water [1] | inhibition of HIV-2 RT (HIV-2 RT) | inhibition of human cellular DNA polymerases alpha, beta, gamma, and delta [2] | % of cells induced (ACH-2 cell line) | Infected resting cells per billion after exposure to ([3]; Patient A1) | Infected resting cells per billion after exposure to ([3]; Patient B) | Infected resting cells per billion after exposure to ([3]; Patient C) | IC50 (ACH-2 cell line; Homo sapiens, ACH-2, 24 h, read-out: IC50 (induction of HIV expression))
1 | O=C1Nc2ccc(Cl)cc2[C@@](C#CC2CC2)(C(F)(F)F)O1 [Efavirenz, (S)-6-chloro-4-(cyclopropylethynyl)-1,4-dihydro-4-(trifluoromethyl)-2H-3,1-benzoxazin-2-one] | practically insoluble | not inhibited | not inhibited |  |  |  |  | 
2 | CC(/C=C/C(=O)NO)=C\[C@@H](C)C(=O)c1ccc(N(C)C)cc1 [TSA, Trichostatin A] |  |  |  | 78% |  |  |  | 
3 | CCCC(CCC)C(=O)O [VPA, valproic acid] |  |  |  | 62% | 223 per billion | >11,300 per billion | 25 per billion | 910 µM
